One-dose inflammasome screen (PubChem AID 2061109, Seoul National University)
system: mouse macrophages from bone marrow, LPS + nigericin (NLRP3)
compound dose: 5 µM
value: % inhibition of cell death (propidium iodide), 0 = stimulated, 100 = untreated, floor at 0
*: called active, above 70% Part of the library is listed.

{"smiles": "O=C1NCCc2[nH]c(-c3ccnc(-c4cnc5ccccc5c4)c3)cc21", "inhibition [%]": "1.5"}
{"smiles": "O=C1Nc2ccc(Cl)cc2/C1=C/c1cc(Br)c(O)c(Br)c1", "inhibition [%]": "50.2"}
{"smiles": "C[C@@H](Oc1cc(-c2cnn(C3CCNCC3)c2)cnc1N)c1c(Cl)ccc(F)c1Cl.Cl", "inhibition [%]": "56.7"}
{"smiles": "CCc1c2c(nc3ccc(OC(=O)N4CCC(N5CCCCC5)CC4)cc13)-c1cc3c(c(=O)n1C2)COC(=O)[C@]3(O)CC", "inhibition [%]": "0.0"}
{"smiles": "C=C[C@H]1[C@H](O[C@@H]2O[C@H](CO)[C@@H](O)[C@H](O)[C@H]2O)OC=C2C(=O)OC(O)C[C@H]21", "inhibition [%]": "21.6"}
{"smiles": "O=C(C=Cc1ccccc1)c1ccc(O)cc1O", "inhibition [%]": "0.0"}
{"smiles": "CS(=O)(=O)c1cccc(C[C@H](NC(=O)c2c(Cl)cc3c(c2Cl)CCN(C(=O)c2ccc4ccoc4c2)C3)C(=O)O)c1", "inhibition [%]": "0.0"}
{"smiles": "O=C1NC(=O)C2(CCOc3ccc(F)cc32)N1", "inhibition [%]": "46.1"}
{"smiles": "CCN(CC)C(=O)[C@@]1(c2ccccc2)C[C@H]1CN.Cl", "inhibition [%]": "0.0"}
{"smiles": "CS(=O)(=O)O.O=C(NC1CCN(CCCCC2(C(=O)NCC(F)(F)F)c3ccccc3-c3ccccc32)CC1)c1ccccc1-c1ccc(C(F)(F)F)cc1", "inhibition [%]": "22.0"}
{"smiles": "C[C@H](NC(=O)N1CCc2cccnc2[C@H]1c1ccc(C(F)(F)F)cc1)C(F)(F)F", "inhibition [%]": "0.0"}
{"smiles": "COc1ccc2[n-]c(S(=O)Cc3ncc(C)c(OC)c3C)nc2c1.COc1ccc2[n-]c(S(=O)Cc3ncc(C)c(OC)c3C)nc2c1.O.O.O.[Mg+2]", "inhibition [%]": "69.3"}
{"smiles": "COc1cc(N2CCC(O)CC2)ccc1Nc1nc(Nc2ccccc2S(=O)(=O)C(C)C)c2[nH]cnc2n1", "inhibition [%]": "39.9"}
{"smiles": "CCOC(=O)[C@@H](Cc1cn(C)c2ccccc12)NC(=O)[C@@H](N)CC(C)C.Cl", "inhibition [%]": "0.0"}
{"smiles": "O=S(=O)(c1ccc2c(c1)OCCO2)N1CCN(c2nc(-c3cccnc3)nc3ccccc23)CC1", "inhibition [%]": "0.0"}
{"smiles": "CC(C)=CCc1cc(-c2coc3cc(O)cc(O)c3c2=O)cc(O)c1O", "inhibition [%]": "6.7"}
{"smiles": "OC[C@H]1O[C@@H](S[C@@H]2O[C@H](CO)[C@H](O)[C@H](O)[C@H]2O)[C@H](O)[C@@H](O)[C@H]1O", "inhibition [%]": "0.0"}
{"smiles": "COc1ccc(C2(CNC(=O)c3ccc(NC(=O)c4ccco4)cc3)CCOCC2)cc1", "inhibition [%]": "12.0"}
{"smiles": "O=S(=O)(Nc1ccc(-c2nc(OC3CCC(O)CC3)c3cn[nH]c3n2)cc1)c1cc(Cl)ccc1F", "inhibition [%]": "81.3*"}
{"smiles": "Cc1c(Br)cc(NCC(=O)N/N=C/c2cc([N+](=O)[O-])ccc2O)cc1Br", "inhibition [%]": "6.9"}
{"smiles": "COc1ccc(S(=O)(=O)N(CCO)c2ccccc2CN(C)C/C=C/c2ccc(Cl)cc2)cc1.O=P(O)(O)O", "inhibition [%]": "0.0"}
{"smiles": "C[C@H]1Oc2cc(cnc2N)-c2c(nn(C)c2C#N)CN(C)C(=O)c2ccc(F)cc21", "inhibition [%]": "0.0"}
{"smiles": "NS(=O)(=O)c1ccc(NC(=O)Nc2ccc(F)cc2)cc1", "inhibition [%]": "49.8"}
{"smiles": "CN(C)[C@@H]1C(=O)C(C(N)=O)=C(O)[C@@]2(O)C(=O)C3=C(O)c4c(O)cccc4[C@@](C)(O)[C@H]3[C@H](O)[C@@H]12", "inhibition [%]": "0.0"}
{"smiles": "COCCNc1nc2ccc(C#CC3(O)CCCCC3)cc2n1-c1ccnc(N)n1", "inhibition [%]": "34.4"}
{"smiles": "Cc1c(-c2[nH]c3ccc(C4CCN(CC(N)=O)CC4)cc3c2C(C)C)cn2ncnc2c1C", "inhibition [%]": "45.3"}
{"smiles": "NC(=O)[C@@H]1CC[C@@H]2CN1C(=O)N2OS(=O)(=O)[O-].[Na+]", "inhibition [%]": "81.7*"}
{"smiles": "Cn1c2c(c(=O)n(C)c1=O)C(C(F)(F)F)(C(F)(F)F)N=C(c1ccc(Cl)cc1)N2", "inhibition [%]": "0.0"}
{"smiles": "Cn1c(=O)c2ncnnc2n(C)c1=O", "inhibition [%]": "0.0"}
{"smiles": "CC(C)[C@H](O)C(=O)N[C@@H](C)C(=O)N[C@@H]1C(=O)N(C)c2ccccc2-c2ccccc21", "inhibition [%]": "34.6"}
{"smiles": "COc1cc2c(cc1OC(C)C)[C@H](c1ccc(Cl)cc1)N(c1ccc(N(C)CC3CCC(N4CCN(C)C(=O)C4)CC3)cc1)C(=O)C2", "inhibition [%]": "19.9"}
{"smiles": "Cc1cc(-c2[nH]c3ccc(C4CCNCC4)cc3c2C(C)C)cc(C)n1", "inhibition [%]": "38.9"}
{"smiles": "C=C(F)C(=O)N1CC(n2nc(-c3ccc(C(F)(F)F)cc3)c3cccnc32)C1", "inhibition [%]": "5.5"}
{"smiles": "COc1nsc(NC(=O)N2C[C@H]3CC(N(C)c4ncnc5[nH]ccc45)C[C@H]3C2)n1", "inhibition [%]": "24.9"}
{"smiles": "Cc1cc2ncc(-c3ccc(O)c(O)c3)nc2cc1C", "inhibition [%]": "21.6"}
{"smiles": "CC(=O)O[C@]1(C(C)=O)CC[C@H]2[C@@H]3C=C(Cl)C4=CC(=O)[C@@H]5C[C@@H]5[C@]4(C)[C@H]3CC[C@@]21C", "inhibition [%]": "0.0"}
{"smiles": "NS(=O)(=O)c1ccc(N2N=C(C(F)(F)F)CC2c2c[nH]c3c(Cl)cccc23)cc1", "inhibition [%]": "0.0"}
{"smiles": "Cc1ccc2c(c1CCC(=O)O)CC[C@@H](NS(=O)(=O)c1ccc(Cl)cc1)C2", "inhibition [%]": "0.9"}
{"smiles": "Cl.N#Cc1ncc(N2C(=O)C3(CCC3)N(c3ccc(OC4CCNCC4)nc3)C2=S)cc1C(F)(F)F", "inhibition [%]": "33.3"}
{"smiles": "O=C(c1ccccc1O)c1[nH]c(Cl)c(Cl)c1-n1c(C(=O)c2ccccc2O)cc(Cl)c1Cl", "inhibition [%]": "0.0"}
{"smiles": "C[C@H]1O[C@H](OC2[C@@H](O)[C@@H](O)C(O)[C@H](O)[C@H]2O)[C@@H](N)C[C@@H]1N=C(N)C(=O)O.Cl.O", "inhibition [%]": "64.0"}
{"smiles": "O=C(CC1(O)C(=O)Nc2c(Cl)ccc(Cl)c21)c1ccc(C2CC2)cc1", "inhibition [%]": "0.0"}
{"smiles": "O=c1cc(-c2ccc(O)c(O)c2)oc2cc(O[C@@H]3O[C@H](CO)[C@@H](O)[C@H](O)[C@H]3O)cc(O)c12", "inhibition [%]": "5.4"}
{"smiles": "O=C(COCC(=O)N1CCN(C(c2ccccc2)c2ccccc2)CC1)Nc1ccc(Cl)cc1C(=O)[O-].[Na+]", "inhibition [%]": "71.2*"}
{"smiles": "COc1cc(OC)c2c(=O)c(OCCCCN3CCN(C(=O)c4ccncc4)CC3)c(-c3cc(OC)c(OC)c(OC)c3)oc2c1", "inhibition [%]": "16.5"}
{"smiles": "CCCn1c(=O)c2[nH]c(-c3ccc(OCC(=O)Nc4ccc(C#N)cc4)cc3)nc2n(CCC)c1=O", "inhibition [%]": "0.0"}
{"smiles": "CCN1CCCC1CNC(=O)c1cc(S(=O)(=O)CC)ccc1OC.Cl", "inhibition [%]": "0.0"}
{"smiles": "Cc1sc(C(=O)c2cncnc2N[C@@H]2C[C@H](COS(N)(=O)=O)[C@@H](O)C2)cc1[C@@H]1NCCc2ccc(Cl)cc21", "inhibition [%]": "0.0"}
{"smiles": "CC1=C(CO)C(=O)O[C@@H]([C@@H](C)[C@H]2CC[C@H]3[C@@H]4C[C@H]5O[C@]56[C@@H](O)C=CC(=O)[C@]6(C)[C@H]4CC[C@]23C)C1", "inhibition [%]": "95.4*"}
{"smiles": "COc1cc2nc(N3CCN(C(=O)C4COc5ccccc5O4)CC3)nc(N)c2cc1OC", "inhibition [%]": "0.0"}
{"smiles": "C[C@@H]1CN(Cc2ccc(F)cc2)[C@@H](C)CN1C(=O)c1cc2c(C(=O)C(=O)N(C)C)cn(C)c2cc1Cl", "inhibition [%]": "54.7"}
{"smiles": "CC(=O)/C(C)=N/O", "inhibition [%]": "0.0"}
{"smiles": "COc1cc2c(cc1OC)CN(CCc1ccc(-n3nnc(-c4cc(OC)c(OC)cc4NC(=O)c4cc(=O)c5ccccc5o4)n3)cc1)CC2.CS(=O)(=O)O.O", "inhibition [%]": "50.7"}
{"smiles": "Cc1ccc(S(=O)(=O)c2ccc([N+](=O)[O-])o2)cc1", "inhibition [%]": "99.1*"}
{"smiles": "Cn1c(=O)c2c(ncn2CCCN2CCC(OC(c3ccccc3)c3ccccc3)CC2)n(C)c1=O", "inhibition [%]": "49.3"}
{"smiles": "CC(C)C1=CC2=CC[C@@H]3[C@](C)(CCC[C@@]3(C)C(=O)O)[C@H]2CC1", "inhibition [%]": "38.1"}
{"smiles": "O=C(CC(CO)N1CCN(c2ccc(OC(F)(F)F)cc2)CC1)Nc1ccc(Cl)cc1", "inhibition [%]": "26.0"}
{"smiles": "Cn1c(=O)[nH]c2ncn(C)c2c1=O", "inhibition [%]": "75.0*"}
{"smiles": "CCCCN(Cc1ccccc1)C(=O)c1ccc(S(=O)(=O)Nc2ccccc2)cc1", "inhibition [%]": "0.0"}
{"smiles": "CNCCCN1c2ccccc2CCc2ccccc21.Cl", "inhibition [%]": "0.0"}
{"smiles": "Cn1cc(Nc2nccc(N3CC4CCC(C3)N4C(=O)[C@@H]3CC3(F)F)n2)cn1", "inhibition [%]": "10.5"}
{"smiles": "CCCC(=O)Nc1ccc(OCC(O)CNCCc2ccc(OC)c(OC)c2)c(-c2ccno2)c1", "inhibition [%]": "56.1"}
{"smiles": "C[C@@H]1COC(Nc2ccc3ncnc(Nc4ccc(OCc5nccs5)c(Cl)c4)c3c2)=N1", "inhibition [%]": "68.7"}
{"smiles": "COCCOC1CCC(Nc2cc(=O)n(C)c3ccc(-c4cncs4)cc23)CC1", "inhibition [%]": "30.6"}
{"smiles": "Cn1ncnc2c(=O)n(C)c(=O)nc1-2", "inhibition [%]": "66.7"}
{"smiles": "CC(C)c1cccc(C(C)C)c1NC(=O)Nc1ccc(Sc2ccc([N+](=O)[O-])cc2)cc1", "inhibition [%]": "20.4"}
{"smiles": "CCc1sc(N)nc1-c1ccc(OC)cc1", "inhibition [%]": "9.3"}
{"smiles": "FC(F)F.NCCCC[C@@H]1NC(=O)[C@@H](Cc2ccc(O)cc2)NC(=O)[C@H](CC(=O)O)NC(=O)CNC(=O)[C@H](CCCN=C(N)N)NC1=O.O=C(O)C(F)(F)F.O=CO", "inhibition [%]": "0.0"}
{"smiles": "CCc1c(C#N)c(SC(C(N)=O)c2ccccc2)nc(N2CCC(N)CC2)c1C#N", "inhibition [%]": "0.0"}
{"smiles": "O=C(Cn1c(CCNCC(=O)c2ccccc2)nc2ccccc21)Nc1ccc2c(c1)CCC2", "inhibition [%]": "14.2"}
{"smiles": "Cc1c[nH]c2nccc(Oc3c(F)cc(Nc4cc(Cl)nc(N)n4)cc3F)c12", "inhibition [%]": "50.5"}
{"smiles": "CC(=O)Oc1ccc(OC(C)=O)cc1", "inhibition [%]": "43.8"}
{"smiles": "CC(Cc1ccc(C(C)(C)C)cc1)CN1CCCCC1", "inhibition [%]": "0.0"}
{"smiles": "CN1CCN(C(=O)/C=C2/c3ccccc3NC(=O)c3ccccc32)CC1", "inhibition [%]": "54.1"}

Repeating the final 7 entries:

| smiles | inhibition [%] |
|---|---|
| FC(F)F.NCCCC[C@@H]1NC(=O)[C@@H](Cc2ccc(O)cc2)NC(=O)[C@H](CC(=O)O)NC(=O)CNC(=O)[C@H](CCCN=C(N)N)NC1=O.O=C(O)C(F)(F)F.O=CO | 0.0 |
| CCc1c(C#N)c(SC(C(N)=O)c2ccccc2)nc(N2CCC(N)CC2)c1C#N | 0.0 |
| O=C(Cn1c(CCNCC(=O)c2ccccc2)nc2ccccc21)Nc1ccc2c(c1)CCC2 | 14.2 |
| Cc1c[nH]c2nccc(Oc3c(F)cc(Nc4cc(Cl)nc(N)n4)cc3F)c12 | 50.5 |
| CC(=O)Oc1ccc(OC(C)=O)cc1 | 43.8 |
| CC(Cc1ccc(C(C)(C)C)cc1)CN1CCCCC1 | 0.0 |
| CN1CCN(C(=O)/C=C2/c3ccccc3NC(=O)c3ccccc32)CC1 | 54.1 |